The numbers were not newly measured in US11707636B2, “Methods and devices for modulating cellular activity using ultrasound” (priority 2008, dated 2023), which cites them from elsewhere.

The subject of the data set is blood-brain barrier. Particulars: mouse, in vivo, iv; cited from earlier work.

For the substance fluorescein isothiocyanate-dextran, the “crossing of the blood-brain barrier (BBB) under normal conditions” value is reported as “does not cross”.
